This note sets out measurements from ChEMBL document CHEMBL2331285, “Optimization of 3,5-dimethylisoxazole derivatives as potent bromodomain ligands” (J Med Chem, 2013).

The target of this experiment is Bromodomain-containing protein 4 (Homo sapiens, UniProt O60885). Kind of experiment: Binding affinity to human BRD4 bromodomain 1 using H4Ac4 peptide by amplified luminescent proximity homogeneous assay.

As usually defined, the IC50 is the point on the concentration scale where inhibition reaches its midpoint. Low values mean inhibition by little substance, high ones a need for much substance. The term pIC50 denotes the negative decadic logarithm of the IC50, by convention in mol/L. In turn, `CC(=O)Oc1cc(-c2c(C)noc2C)cc(C(O)c2ccccc2)c1` (racemic) came in with an IC50 of 371 nM and a pIC50 of 6.43.
